# Measured values taken from ChEMBL document CHEMBL3608278 (J Med Chem, 2015).
# Amino acid sequences for entries named in this document (tags omitted).
# UniProt P22001, whole entry: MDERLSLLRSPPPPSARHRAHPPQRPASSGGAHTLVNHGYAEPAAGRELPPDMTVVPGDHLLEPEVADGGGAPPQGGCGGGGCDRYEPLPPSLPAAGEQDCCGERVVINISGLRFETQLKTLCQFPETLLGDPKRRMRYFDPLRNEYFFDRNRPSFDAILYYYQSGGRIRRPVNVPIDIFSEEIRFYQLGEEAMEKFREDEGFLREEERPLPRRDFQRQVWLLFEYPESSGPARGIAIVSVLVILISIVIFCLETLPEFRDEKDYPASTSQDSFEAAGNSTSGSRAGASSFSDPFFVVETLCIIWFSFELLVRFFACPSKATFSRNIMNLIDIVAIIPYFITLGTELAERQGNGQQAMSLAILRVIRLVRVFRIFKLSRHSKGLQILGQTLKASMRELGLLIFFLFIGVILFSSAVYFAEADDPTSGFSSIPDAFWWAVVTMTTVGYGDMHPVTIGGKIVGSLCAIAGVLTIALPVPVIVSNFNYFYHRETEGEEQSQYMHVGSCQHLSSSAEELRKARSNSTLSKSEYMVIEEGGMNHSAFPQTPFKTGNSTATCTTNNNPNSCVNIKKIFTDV
# Assays:
# [1] = molecular target: T1, Potassium voltage-gated channel subfamily A member 3 (Homo sapiens, UniProt P22001); set-up: species or system Blood
# [2] = molecular target: T1, Potassium voltage-gated channel subfamily A member 3; experiment: cell-based; set-up: species or system Blood
Compound,IC50 [1] [nM],IC50 [2] [nM]
CC[C@H](C)[C@@H]1NC(=O)[C@@H](NC(=O)[C@H](CO)NC(=O)[C@@H](N)CCCNC(=N)N)CSSC[C@@H](C(=O)O)NC(=O)[C@H]([C@@H](C)O)NC(=O)CNC(=O)[C@@H]2CSSC[C@@H]3NC(=O)[C@H](CCC(N)=O)NC(=O)[C@H](Cc4ccccc4)NC(=O)[C@H](C)NC(=O)[C@H]([C@@H](C)O)NC(=O)[C@H](CSSC[C@H](NC(=O)[C@H](Cc4ccccc4)NC(=O)[C@H](CO)NC(=O)[C@H](CC(C)C)NC(=O)[C@H](CCCNC(=N)N)NC(=O)[C@H](Cc4ccc(O)cc4)NC(=O)[C@H](CCCCN)NC(=O)[C@H](CCSC)NC(=O)[C@H](CO)NC(=O)[C@H](CCC(=O)O)NC(=O)[C@H](CCCCN)NC3=O)C(=O)N[C@@H](CCCNC(=N)N)C(=O)N[C@@H](CCCCN)C(=O)N[C@@H]([C@@H](C)O)C(=O)N2)NC(=O)[C@H](CCCNC(=N)N)NC(=O)[C@H](CO)NC(=O)[C@H](CCCCN)NC(=O)[C@@H]2CCCN2C(=O)[C@H]([C@@H](C)CC)NC(=O)[C@H]([C@@H](C)O)NC(=O)[C@H](CC(=O)O)NC1=O,0.216,–
CC[C@H](C)[C@@H]1NC(=O)[C@@H](NC(=O)[C@H](CO)NC(=O)[C@@H](N)CCCNC(=N)N)CSSC[C@@H](C(=O)O)NC(=O)[C@H]([C@@H](C)O)NC(=O)CNC(=O)[C@@H]2CSSC[C@@H]3NC(=O)[C@H](CCC(N)=O)NC(=O)[C@H](Cc4ccccc4)NC(=O)[C@H](C)NC(=O)[C@H](C)NC(=O)[C@H](CSSC[C@H](NC(=O)[C@H](Cc4ccccc4)NC(=O)[C@H](CO)NC(=O)[C@H](CC(C)C)NC(=O)[C@H](CCCNC(=N)N)NC(=O)[C@H](Cc4ccc(O)cc4)NC(=O)[C@H](CCCCN)NC(=O)[C@H](CCSC)NC(=O)[C@H](CO)NC(=O)[C@H](Cc4cnc[nH]4)NC(=O)[C@H](CCCCN)NC3=O)C(=O)N[C@@H](CCCNC(=N)N)C(=O)N[C@@H](CCCCN)C(=O)N[C@@H]([C@@H](C)O)C(=O)N2)NC(=O)[C@H](CCCNC(=N)N)NC(=O)[C@H](CO)NC(=O)[C@H](CCCCN)NC(=O)[C@@H]2CCCN2C(=O)[C@H]([C@@H](C)CC)NC(=O)[C@H]([C@@H](C)O)NC(=O)[C@H](CC(=O)O)NC1=O,0.795,0.391
CC[C@H](C)[C@@H]1NC(=O)[C@@H](NC(=O)[C@H](CO)NC(=O)[C@@H](N)CCCNC(=N)N)CSSC[C@@H](C(=O)O)NC(=O)[C@H]([C@@H](C)O)NC(=O)[C@H](CCCCN)NC(=O)[C@@H]2CSSC[C@@H]3NC(=O)[C@H](CCC(N)=O)NC(=O)[C@H](Cc4ccccc4)NC(=O)[C@H](C)NC(=O)[C@H]([C@@H](C)O)NC(=O)[C@H](CSSC[C@H](NC(=O)[C@H](Cc4ccccc4)NC(=O)[C@H](CO)NC(=O)[C@H](CC(C)C)NC(=O)[C@H](CCCNC(=N)N)NC(=O)[C@H](Cc4ccc(O)cc4)NC(=O)[C@H](CCCCN)NC(=O)[C@H](CCSC)NC(=O)[C@H](CO)NC(=O)[C@H](Cc4cnc[nH]4)NC(=O)[C@H](CCCCN)NC3=O)C(=O)N[C@@H](CCCNC(=N)N)C(=O)N[C@@H](CCCCN)C(=O)N[C@@H]([C@@H](C)O)C(=O)N2)NC(=O)[C@H](CCCNC(=N)N)NC(=O)[C@H](CO)NC(=O)[C@H](CCCCN)NC(=O)[C@@H]2CCCN2C(=O)[C@H]([C@@H](C)CC)NC(=O)[C@H]([C@@H](C)O)NC(=O)[C@H](CC(=O)O)NC1=O,0.318,0.218
CC[C@H](C)[C@@H]1NC(=O)[C@@H](NC(=O)[C@H](CO)NC(=O)[C@@H](N)CCCNC(=N)N)CSSC[C@@H](C(=O)O)NC(=O)[C@H]([C@@H](C)O)NC(=O)[C@H](Cc2cccc3ccccc23)NC(=O)[C@@H]2CSSC[C@@H]3NC(=O)[C@H](CCC(N)=O)NC(=O)[C@H](Cc4ccccc4)NC(=O)[C@H](C)NC(=O)[C@H]([C@@H](C)O)NC(=O)[C@H](CSSC[C@H](NC(=O)[C@H](Cc4ccccc4)NC(=O)[C@H](CO)NC(=O)[C@H](CC(C)C)NC(=O)[C@H](CCCNC(=N)N)NC(=O)[C@H](Cc4ccc(O)cc4)NC(=O)[C@H](CCCCN)NC(=O)[C@H](CCSC)NC(=O)[C@H](CO)NC(=O)[C@H](Cc4cnc[nH]4)NC(=O)[C@H](CCCCN)NC3=O)C(=O)N[C@@H](CCCNC(=N)N)C(=O)N[C@@H](CCCCN)C(=O)N[C@@H]([C@@H](C)O)C(=O)N2)NC(=O)[C@H](CCCNC(=N)N)NC(=O)[C@H](CO)NC(=O)[C@H](CCCCN)NC(=O)[C@@H]2CCCN2C(=O)[C@H]([C@@H](C)CC)NC(=O)[C@H]([C@@H](C)O)NC(=O)[C@H](CC(=O)O)NC1=O,1.43,–
CC[C@H](C)[C@@H]1NC(=O)[C@@H](NC(=O)[C@H](CO)NC(=O)[C@@H](N)CCCNC(=N)N)CSSC[C@@H](C(=O)O)NC(=O)[C@H]([C@@H](C)O)NC(=O)CNC(=O)[C@@H]2CSSC[C@@H]3NC(=O)[C@H](CCC(N)=O)NC(=O)[C@H](Cc4ccccc4)NC(=O)[C@H](C)NC(=O)[C@H]([C@@H](C)O)NC(=O)[C@H](CSSC[C@H](NC(=O)[C@H](Cc4ccccc4)NC(=O)[C@H](CO)NC(=O)[C@H](CC(C)C)NC(=O)[C@H](CCC(=O)O)NC(=O)[C@H](Cc4ccc(O)cc4)NC(=O)[C@H](CCCCN)NC(=O)[C@H](CCSC)NC(=O)[C@H](CO)NC(=O)[C@H](Cc4cnc[nH]4)NC(=O)[C@H](CCCCN)NC3=O)C(=O)N[C@@H](CCCNC(=N)N)C(=O)N[C@@H](CCCCN)C(=O)N[C@@H]([C@@H](C)O)C(=O)N2)NC(=O)[C@H](CCCNC(=N)N)NC(=O)[C@H](CO)NC(=O)[C@H](CCCCN)NC(=O)[C@@H]2CCCN2C(=O)[C@H]([C@@H](C)CC)NC(=O)[C@H]([C@@H](C)O)NC(=O)[C@H](CC(=O)O)NC1=O,4.07,1.11
CC[C@H](C)[C@@H]1NC(=O)[C@@H](NC(=O)[C@H](CO)NC(=O)[C@@H](N)CCCNC(=N)N)CSSC[C@@H](C(=O)O)NC(=O)[C@H]([C@@H](C)O)NC(=O)CNC(=O)[C@@H]2CSSC[C@@H]3NC(=O)[C@H](C)NC(=O)[C@H](Cc4ccccc4)NC(=O)[C@H](C)NC(=O)[C@H]([C@@H](C)O)NC(=O)[C@H](CSSC[C@H](NC(=O)[C@H](Cc4ccccc4)NC(=O)[C@H](CO)NC(=O)[C@H](CC(C)C)NC(=O)[C@H](CCCNC(=N)N)NC(=O)[C@H](Cc4ccc(O)cc4)NC(=O)[C@H](CCCCN)NC(=O)[C@H](CCSC)NC(=O)[C@H](CO)NC(=O)[C@H](Cc4cnc[nH]4)NC(=O)[C@H](CCCCN)NC3=O)C(=O)N[C@@H](CCCNC(=N)N)C(=O)N[C@@H](CCCCN)C(=O)N[C@@H]([C@@H](C)O)C(=O)N2)NC(=O)[C@H](CCCNC(=N)N)NC(=O)[C@H](CO)NC(=O)[C@H](CCCCN)NC(=O)[C@@H]2CCCN2C(=O)[C@H]([C@@H](C)CC)NC(=O)[C@H]([C@@H](C)O)NC(=O)[C@H](CC(=O)O)NC1=O,0.09,0.054
CC[C@H](C)[C@@H]1NC(=O)[C@@H](NC(=O)[C@H](CO)NC(=O)[C@@H](N)CCCNC(=N)N)CSSC[C@@H](C(=O)O)NC(=O)[C@H]([C@@H](C)O)NC(=O)CNC(=O)[C@@H]2CSSC[C@@H]3NC(=O)[C@H](CCC(N)=O)NC(=O)[C@H](Cc4ccccc4)NC(=O)[C@H](C)NC(=O)[C@H]([C@@H](C)O)NC(=O)[C@H](CSSC[C@H](NC(=O)[C@H](Cc4ccccc4)NC(=O)[C@H](CO)NC(=O)[C@H](CC(C)C)NC(=O)[C@H](CCCCN)NC(=O)[C@H](Cc4ccc(O)cc4)NC(=O)[C@H](CCCCN)NC(=O)[C@H](CCSC)NC(=O)[C@H](CO)NC(=O)[C@H](Cc4cnc[nH]4)NC(=O)[C@H](CCCCN)NC3=O)C(=O)N[C@@H](CCCNC(=N)N)C(=O)N[C@@H](CCCCN)C(=O)N[C@@H]([C@@H](C)O)C(=O)N2)NC(=O)[C@H](CCCNC(=N)N)NC(=O)[C@H](CO)NC(=O)[C@H](CCCCN)NC(=O)[C@@H]2CCCN2C(=O)[C@H]([C@@H](C)CC)NC(=O)[C@H]([C@@H](C)O)NC(=O)[C@H](CC(=O)O)NC1=O,–,0.045
CC[C@H](C)[C@@H]1NC(=O)[C@@H](NC(=O)[C@H](CO)NC(=O)[C@@H](N)CCCNC(=N)N)CSSC[C@@H](C(=O)O)NC(=O)[C@H]([C@@H](C)O)NC(=O)CNC(=O)[C@@H]2CSSC[C@@H]3NC(=O)[C@H](CCC(N)=O)NC(=O)[C@H](Cc4ccccc4)NC(=O)[C@H](C)NC(=O)[C@H]([C@@H](C)O)NC(=O)[C@H](CSSC[C@H](NC(=O)[C@H](Cc4ccccc4)NC(=O)[C@H](CO)NC(=O)[C@H](CC(C)C)NC(=O)[C@H](CCCNC(=N)N)NC(=O)[C@H](Cc4ccc(O)cc4)NC(=O)[C@H](CCCCN)NC(=O)[C@H](CCSC)NC(=O)[C@H](CO)NC(=O)[C@H](Cc4cnc[nH]4)NC(=O)[C@H](CCCCN)NC3=O)C(=O)N[C@@H](CCCNC(=N)N)C(=O)N[C@@H](CCCCN)C(=O)N[C@@H]([C@@H](C)O)C(=O)N2)NC(=O)[C@H](CCCNC(=N)N)NC(=O)[C@H](CO)NC(=O)[C@H](Cc2cccc3ccccc23)NC(=O)[C@@H]2CCCN2C(=O)[C@H]([C@@H](C)CC)NC(=O)[C@H]([C@@H](C)O)NC(=O)[C@H](CC(=O)O)NC1=O,0.666,0.368
CC[C@H](C)[C@@H]1NC(=O)[C@@H](NC(=O)[C@H](CO)NC(=O)[C@@H](N)CCCNC(=N)N)CSSC[C@@H](C(=O)O)NC(=O)[C@H]([C@@H](C)O)NC(=O)[C@H](CCC(=O)O)NC(=O)[C@@H]2CSSC[C@@H]3NC(=O)[C@H](CCC(N)=O)NC(=O)[C@H](Cc4ccccc4)NC(=O)[C@H](C)NC(=O)[C@H]([C@@H](C)O)NC(=O)[C@H](CSSC[C@H](NC(=O)[C@H](Cc4ccccc4)NC(=O)[C@H](CO)NC(=O)[C@H](CC(C)C)NC(=O)[C@H](CCCNC(=N)N)NC(=O)[C@H](Cc4ccc(O)cc4)NC(=O)[C@H](CCCCN)NC(=O)[C@H](CCSC)NC(=O)[C@H](CO)NC(=O)[C@H](Cc4cnc[nH]4)NC(=O)[C@H](CCCCN)NC3=O)C(=O)N[C@@H](CCCNC(=N)N)C(=O)N[C@@H](CCCCN)C(=O)N[C@@H]([C@@H](C)O)C(=O)N2)NC(=O)[C@H](CCCNC(=N)N)NC(=O)[C@H](CO)NC(=O)[C@H](CCCCN)NC(=O)[C@@H]2CCCN2C(=O)[C@H]([C@@H](C)CC)NC(=O)[C@H]([C@@H](C)O)NC(=O)[C@H](CC(=O)O)NC1=O,–,0.055
